Counter-ions that a name gives are not always drawn.
Key:
Aβ 1-40 [1] = biological target: T1, Aβ 1-40 (Homo sapiens, UniProt P05067); experiment: Thioflavin T (ThT) fluorescence assay for fibril formation; type: biochemical; design: Amyloid-β (Aβ 1-40) was purchased from California Peptides (Lot # SF104); purchased California Peptides Lot # SF104; conditions: Aβ 1-40 100 μM incubated with compound, pH 7.4, 37° C., 3 days
Experimental: Preparation of Stock Peptide Solutions for Fibrillization Studies. Stock solutions of the inhibitors were prepared by dissolving the compounds at a concentration of 5-7 mM in water or in 1-1.5% DMSO solutions (for compounds with reduced solubility). Amyloid-β (Aβ 1-40) was purchased from California Peptides (Lot # SF104). Aβ 1-40 stock solutions were prepared by dissolving purified and lyophilized peptide in cold double distilled water to yield stock solutions at a concentration of 2 mg/mL. The stock solutions were used within 10-30 minutes of dissolution. Samples for fibril formation assay were prepared by diluting the appropriate amount of Aβ stock with pH 7.4 Tris-HCl buffer (50 mM Tris, 150 mM NaCl) to afford a final peptide concentration of 100 μM. […] Analytical ultracentrifugation, and electron microscopy were periodically used to ensure that we start our experiments with a hydrodynamically defined Aβ monomer, and the absence of any preformed fibrils in solution.
Thioflavin T (ThT) Fluorescence Assay for Fibril Formation. Thioflavin T was purchased from Aldrich (70% purity) and was recrystallized from benzene/ethanol (1:1) to afford yellow crystals (36). Thioflavin T binding assays were performed by addition of 50 μL of 100 μM Aβ solutions, which were incubated at 37° C. in the absence and presence of inhibitors, to 450 μL solution of 10 μM Thioflavin T in phosphate buffer (10 mM phosphate, 100 mM KCl). The solutions were mixed and fluorescence measurements were recorded in Biosystems model spectrofluorimeter at 25° C. using a 1 cm path length quartz cell. An excitation slit width of 4 nm and an emission slit width of 8 nm were employed. The excitation wavelength was set to 450 nm and emission monitored from 460-630 nm. The relative fluorescence at 482 nm was plotted for each sample, and was used as a measure of the amount of fibrillar aggregates in solution.

Amino acid sequences for entries named in this document (tags omitted). Residues count along the entry.
UniProt P05067, 672-711: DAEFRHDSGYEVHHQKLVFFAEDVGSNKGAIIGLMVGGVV

Aβ 1-40 [2] = biological target: T1, Aβ 1-40; experiment: Aβ 1-40 fibril formation inhibition judged by ThT, sedimentation velocity and electron microscopy; conditions: Aβ 1-40 100 μM, pH 7.4, 37° C., 3 days
Aβ 1-40 [3] = biological target: T1, Aβ 1-40; experiment: Sedimentation velocity of Aβ quaternary structures in the presence of inhibitors; type: biochemical; design: Amyloid-β (Aβ 1-40) was purchased from California Peptides (Lot # SF104); purchased California Peptides Lot # SF104; conditions: Aβ 100 μM, compound 100 μM, 20 h at 37° C.
Experimental: Probing the Mechanism of Amyloid Fibril Formation Inhibition using Sedimentation Velocity Experiments. To probe the mechanism by which apomorphine and its structural analogues inhibit Aβ fibril formation, sedimentation velocity was used to determine the distribution and molecular size of quaternary structures of Aβ in the presence and absence of inhibitors. Aβ samples (100 μM) in a pH 7.4 buffer (50 mM Tris-HCl, 150 mM NaCl) were incubated at 37° C. for 1-10 days in the presence and absence of inhibitors, then transferred to 25° C. for 1-3 hours before the sedimentation experiments were carried out at 20° C. The sedimentation properties of Aβ 1-40 in the absence and presence of inhibitors were obtained from data collected on a temperature controlled Beckman XL-1 using 400-420 μL of peptide solutions and data were recorded at rotor speeds of 3,000-30,000 rpm in continuous mode with a step size of 0.005 cm. The sedimentation velocity absorbance profiles were then analyzed using the time derivative (dc/dt) analysis program, which was provided by J. Philo, to obtain the sedimentation coefficient distribution g(*s) for all the quaternary structures in solution as described previously (37, 38).
Fitting of the g(*s) profiles allows for the determination of the sedimentation coefficient (peak position, with a unit of Svedberg, 1 S=10^−13 s) and the diffusion coefficient (from the peak width, with a unit of Fick, 1 F=[…]). This method has the advantage of allowing for the calculation of the molecular weight of the sedimenting species using equation II since s and D can be obtained from the fitting analysis. [formula]
In the cases where the diffusion coefficient cannot be determined accurately, the molecular weight of a spherical protein can still be estimated by combining the Svedberg equation and Stokes equation for the frictional coefficient to obtain equation III which utilizes the estimated sedimentation coefficient: [formula]
Sedimentation velocity was also used to determine the amount of soluble Aβ and Aβ monomer in solution after sedimentation of Aβ aggregates. […] The percent of monomeric species in solution was calculated using equation IV at 50,000 rpm and after complete sedimentation of Aβ high MW oligomeric species. Sedimentation equilibrium studies of the unsedimented species were carried out to determine whether a monomer, dimer or a mixture was present in solution. % of unsedimented Aβ=1−(Absorbance(290 nm, 3000 rpm)−Absorbance(290 nm, 20,000-30,000 rpm))×100 (IV)

Row | Compound | Thioflavin T fluorescence at 482 nm (amount of fibrils) (Aβ 1-40 [1]) | Effect on Aβ 1-40 fibril formation (ThT, sedimentation velocity, EM) (Aβ 1-40 [2]) | Major species in solution after 20 h (Aβ 1-40 [3])
1 | COc1ccc2c(c1O)-c1cccc3c1[C@@H](C2)N(C)CC3.Cl [R(−)-apocodeine, R(−)-Apocodeine hydrochloride, reference compound] | ThT fluorescence similar in magnitude to that of Aβ 1-40 incubated alone | – | –
2 | CCCN1CCc2cccc3c2[C@H]1Cc1ccc(O)c(O)c1-3.Cl [D027, R(−)-Propylnorapomorphine hydrochloride] | did not exhibit any increase in ThT fluorescence | inhibited the formation of Aβ 1-40 fibrils | accumulation of soluble nonfibrillar assemblies as the major species in solution
3 | COc1ccc2c(c1O)-c1c3c(cc4c1[C@H](C2)N(C)CC4)OCO3 [bulbocapnine, Bulbocapnine hydrochloride, reference compound] | ThT fluorescence similar in magnitude to that of Aβ 1-40 incubated alone | – | –
4 | COc1ccc2c(c1O)-c1c(OC)c(OC)cc3c1[C@H](C2)N(C)CC3.Cl [isocrydine, Isocrydine hydrochloride, reference compound] | ThT fluorescence similar in magnitude to that of Aβ 1-40 incubated alone | – | –
5 | Br.CCCN1CCc2cc(O)cc3c2[C@H]1Cc1ccc(O)c(O)c1-3 [D029, R(−)-2,10,11-Trihydroxy-N-propylnorapomorphine hydrobromide] | did not exhibit any increase in ThT fluorescence | inhibited the formation of Aβ 1-40 fibrils | accumulation of soluble nonfibrillar assemblies as the major species in solution
6 | CCCN1CCc2cccc3c2[C@H]1Cc1ccc2c(c1-3)OCO2.Cl [M121, R(−)-10,11-Methylenedioxy-N-n-propylnoraporphine hydrochloride, reference compound] | ThT fluorescence similar in magnitude to that of Aβ 1-40 incubated alone | – | –
7 | CN1CCc2cccc3c2C1Cc1ccc(O)c(O)c1-3 (single isomer, unassigned; (-)) [apomorphine, (−)-10,11-dihydroxyaporphine] | did not exhibit any increase in ThT fluorescence | – | accumulation of soluble nonfibrillar assemblies as the major species in solution
8 | Br.Oc1ccc2c(c1O)-c1cccc3c1[C@@H](C2)NCC3 [D040, R(−)-Norapomorphine hydrobromide] | did not exhibit any increase in ThT fluorescence | inhibited the formation of Aβ 1-40 fibrils | accumulation of soluble nonfibrillar assemblies as the major species in solution
9 | Br.CN1CCc2cc(O)cc3c2[C@H]1Cc1ccc(O)c(O)c1-3 [D030, R(−)-2,10,11-Trihydroxyaporphine hydrobromide] | did not exhibit any increase in ThT fluorescence | inhibited the formation of Aβ 1-40 fibrils | accumulation of soluble nonfibrillar assemblies as the major species in solution

From US20080096909A1, “APOMORPHINE INHIBITORS OF AMYLOID-BETA (ABETA) FIBRIL FORMATION AND THEIR USE IN AMYLOIDOSIS BASED DISEASE” (priority 2001, published 2008)
